Consider 50 molecules from PubChem BioAssay AID1346378 (National Center for Advancing Translational Sciences (NCATS), 2018).

Amino acid sequences for entries named in this document (tags omitted). A change or cut given only in a name is not applied to a line headed by its entry.
UniProt Q9BTU6: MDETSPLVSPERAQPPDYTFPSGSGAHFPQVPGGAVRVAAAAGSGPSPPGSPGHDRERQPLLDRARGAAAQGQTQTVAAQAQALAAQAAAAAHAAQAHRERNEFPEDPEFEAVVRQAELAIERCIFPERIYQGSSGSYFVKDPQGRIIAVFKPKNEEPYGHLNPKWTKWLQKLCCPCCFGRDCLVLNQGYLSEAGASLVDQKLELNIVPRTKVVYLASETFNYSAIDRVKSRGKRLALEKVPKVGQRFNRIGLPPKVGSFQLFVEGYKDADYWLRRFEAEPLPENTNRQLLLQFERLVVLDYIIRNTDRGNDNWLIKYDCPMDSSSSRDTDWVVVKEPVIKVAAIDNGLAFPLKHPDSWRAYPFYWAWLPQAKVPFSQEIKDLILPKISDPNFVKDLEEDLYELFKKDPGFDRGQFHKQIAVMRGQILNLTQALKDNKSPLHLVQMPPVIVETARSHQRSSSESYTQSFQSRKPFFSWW

Molecules are shown by their SMILES. The list shows a part of the results, in another mix than the full data. Active and inactive are the calls of the source. Cut-off read from the data, not from the text of the source: active = activity change below about -50%; inconclusive = mostly about -30% to -49%; inactive = weaker than that.

The target in this experiment is Phosphatidylinositol 4-kinase type 2-alpha (Homo sapiens) (UniProt Q9BTU6). The experiment in a line: qHTS for small molecular inhibitors of PI4K2A.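 For activity change, negative = inhibition: -100% = wells without enzyme as full effect.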 Conditions: purified PI4K2A, ADP-Glo luminescence, 1 h; at 76.9 µM, active compounds read low. From the text: The phosphatidylinositol 4-phosphate (PI4P) is emerging as a key regulator of lipid transfer in ER-membrane contact sites. The four different phosphatidylinositol 4-kinase (PI4K) enzymes generate PI4P in different membrane compartments supporting distinct cellular processes many of which are crucial for the maintenance of cellular integrity but also hijacked by intracellular pathogens. The goal of this screening project is to search for small molecular inhibitors of PI4K2A based on a high throughput screening strategy.The ADP-Glo assay was used as a starting point to develop a miniaturized version for HTS applications. To implement the HTS screen, the PI4K ADP-Glotrade mark Kinase assay (Promega, V9102) was miniaturized for the 1536-well format used at NCGC.
For the robotic screening, the ADP-Glo assay using the ADP-Glotrade mark Kinase Assay kit from Promega was miniaturized and optimized on 1536-well white solid bottom plates (Greiner Bio-one). The substrate, 1.2 mM PI, prepared in the assay buffer (40mM Tris pH7.5, 20mM MgCl2, 1mM EGTA, 0.4% Triton X-100, 0.5mM DTT, 0.5mg/ml BSA) and PI4K2A enzyme, diluted also in the assay buffer to 4ug/mL, were dispensed onto the plates in equal volumes (1microl/well), pinned with 23 nL/well tested compounds or control followed by dispensation of 1microl/well 300microM ATP. The plates were incubated for one hour. Then, 2 µL/well of ADP-Glo reagent was added and incubated for 40 minutes. Next, 4microL/well of Kinase Detection Buffer was added to the plates and incubated for additional 40 minutes. All incubation steps were performed at ambient temperature. The resulting luminescence signal was measured on Viewlux plate reader (PerkinElmer). Adenosine, a partial non-specific inhibitor, was used as a positive control at 100microM final concentration to assess the assay's quality and plate-to-plate reproducibility. We also used "no enzyme" control to gauge the assay's maximal potential inhibition (IC100).
`c1nnnn1CCn1cnnn1`: the activity change, negative = inhibition is inactive: -0.628%.
On to `O=P(Nc1nccs1)(c1ccccc1)c1ccccc1`, for which the activity change, negative = inhibition was inactive: 6.83%.
Turning to `CC(C)C(=O)NC(Sc1ccccc1)C(Cl)(Cl)Cl` (stereo not given), the activity change, negative = inhibition is inactive: -2.66%.
As for `O=P(Nc1nc2ccccc2s1)(c1ccccc1)c1ccccc1`, the activity change, negative = inhibition was inactive: 14.1%.
For the molecule `C[C@H]1OP(=O)(Oc2ccccc2)[C@H](O)[C@H](O)[C@H]1N=[N+]=[N-]` (stereo not given in full), the activity change, negative = inhibition is inactive: -0.748%.
Take `Cc1cc([N+](=O)[O-])cc([N+](=O)[O-])c1O`: the activity change, negative = inhibition result was “inactive”.
For `CN(C(=O)Cc1ccccc1)[C@H]1CC[C@@]2(CCCO2)C[C@@H]1N1CCCC1`, the activity change, negative = inhibition is inactive: 1.48%.
Turning to `Nc1ccc(CCCCOc2ccccc2)cc1`, the activity change, negative = inhibition is inactive: -11.6%.
Regarding `COc1ccc(N)c([N+](=O)[O-])c1[N+](=O)[O-]`, the activity change, negative = inhibition is inactive: 6.54%.
For the molecule `CN(C)C1(CNC(=O)c2ccc(Cl)c(S(N)(=O)=O)c2)CCCCC1`, the activity change, negative = inhibition was inactive: 6.81%.
As for `O=P(Nc1ccccn1)(c1ccc(Br)cc1)c1ccc(Br)cc1`, the activity change, negative = inhibition is inactive: 1.59%.
As to `Nc1ccc([As](=O)(O)c2ccc([N+](=O)[O-])cc2)cc1`, the activity change, negative = inhibition was inactive: -6.77%.
`C(Cc1nn[nH]n1)Cc1nn[nH]n1`: the activity change, negative = inhibition was inactive: 1.34%.
On to `O=C(OC1CN2CCC1CC2)c1cccc(Cl)c1` (stereo not given), for which the activity change, negative = inhibition is inactive: -1.92%.
The value for `CC(=O)NC(SC(=S)N(C)C)C(Cl)(Cl)Cl` (stereo not given) was inactive: 5.64%.
`O=[N+]([O-])c1ncn(CCn2cnc([N+](=O)[O-])n2)n1`: the activity change, negative = inhibition was inactive: 0.008%.
For the molecule `O=[N+]([O-])c1ccc(O)c(/C=N/Nc2ccc([N+](=O)[O-])cc2[N+](=O)[O-])c1`, the activity change, negative = inhibition is inactive: -3.29%.
With `O=[As](O)(c1ccccc1)c1ccc(O)cc1`, the activity change, negative = inhibition is inactive: -1.69%.
As to `O=P1(N(CCCl)CCCl)OCCC2CCCCN21` (stereo not given), the activity change, negative = inhibition is inactive: 0.822%.
`O=C(NC1CCS(=O)(=O)C1)NP(=S)(Oc1ccccc1)Oc1ccccc1` (stereo not given): the activity change, negative = inhibition is inactive: -5.44%.
With `CCNC(=S)/N=C(\N)N[N+](=O)[O-]`, the activity change, negative = inhibition was inactive: -2.22%.
`c1ccc(-c2nn[nH]n2)c(-c2nn[nH]n2)c1`: the activity change, negative = inhibition was inactive: -8.95%.
In the case of `Cc1ccc(NP(=O)(Oc2cccc(C)c2)Oc2cccc(C)c2)nc1`, the activity change, negative = inhibition is inactive: 0.85%.
On to `Cc1ccccc1OP(=O)(Nc1ccccn1)Oc1ccccc1C`, for which the activity change, negative = inhibition is inactive: -0.788%.
For the molecule `CC(NC(=O)COC(=O)C(O)(c1ccccc1)c1ccccc1)c1ccccc1` (stereo not given), the activity change, negative = inhibition was inactive: 0.785%.
For `CN(C)C(=O)Oc1noc2ccccc12`, the activity change, negative = inhibition was inactive: -4.01%.
As for `O=c1c2cc([N+](=O)[O-])ccc2[nH]c2c([N+](=O)[O-])cc([N+](=O)[O-])cc12`, the activity change, negative = inhibition was inactive: 4.42%.
In the case of `COC(=O)c1cc2c(s1)N=C(c1ccccc1)N(C)P2(=O)N1CCOCC1` (stereo not given), the activity change, negative = inhibition is inactive: 0.476%.
Regarding `CC(=O)NC(SC(=S)N(CC(C)C)CC(C)C)C(Cl)(Cl)Cl` (stereo not given), the activity change, negative = inhibition was inactive: -4.76%.
`Cc1ccc(OP(=O)(Nc2ccccn2)Oc2ccc(C)cc2)cc1`: the activity change, negative = inhibition is inactive: -4.84%.
On to `O=C(OC1CN2CCC1CC2)c1ccccc1` (stereo not given), for which the activity change, negative = inhibition is inactive: 4.73%.
Consider `CN(C(=O)Cc1ccc(Cl)c(Cl)c1)[C@@H]1CCCC[C@@H]1N1CCCC1`, for which the activity change, negative = inhibition was inactive: 2.89%.
On to `CCC(=O)N1C2C3N(C(=O)CC)C1C1N(C(=O)CC)C(C(N1C(=O)CC)N3C(=O)CC)N2C(=O)CC`, for which the activity change, negative = inhibition is inactive: 6.26%.
With `CCc1cc(O)c([N+](=O)[O-])c(C)c1[N+](=O)[O-]`, the activity change, negative = inhibition was inactive: 3.55%.
For the molecule `CC(C)(C)C(=O)NC(Sc1ccccc1)C(Cl)(Cl)Cl` (stereo not given), the activity change, negative = inhibition was inactive: -1.55%.
Consider `O=P1(Nc2nc3ccc(Cl)cc3s2)COc2ccccc2O1` (stereo not given), for which the activity change, negative = inhibition was inactive: 2.83%.
As for `CCOc1ccc(C2=NCC(CBr)S2)cc1` (stereo not given), the activity change, negative = inhibition was inactive: 2.76%.
Consider `CC(=O)Nc1ccc([As](=O)(O)O)c(O)c1`, for which the activity change, negative = inhibition was inactive: -5.94%.
For `CC(=O)Nc1ccc(Oc2c([N+](=O)[O-])cc([N+](=O)[O-])cc2[N+](=O)[O-])cc1`, the activity change, negative = inhibition is inactive: 0.668%.
For `N#C/C(=C\c1ccc(N(CCBr)CCBr)cc1)C(N)=O`, the activity change, negative = inhibition is inactive: 3.33%.
With `CC(=O)c1ccc(N2CC2c2ccncc2)cc1` (stereo not given), the activity change, negative = inhibition was inactive: -1.53%.
The value for `COC(=O)C1(C)COP(=O)(NCc2ccccc2)OC1` (stereo not given) was inactive: -0.877%; that for `Cc1ccccc1CN(C)C(=O)COC(=O)C(O)(c1ccccc1)c1ccccc1` was inactive: -2.4%.
In the case of `C[C@@H]1C=CCP(=O)(Oc2ccccc2)O1` (stereo not given in full), the activity change, negative = inhibition is inactive: 1.02%.
As to `C[C@H]1OP(=O)(Oc2ccccc2)C[C@@H]2O[C@@H]21` (stereo not given in full), the activity change, negative = inhibition is inactive: 6.39%.
Regarding `COc1ccccc1OP(=O)(Nc1ccc(C)cn1)Oc1ccccc1OC`, the activity change, negative = inhibition is inactive: -0.452%.
Next, `Cc1ccc(OP(=O)(Nc2nccs2)Oc2ccc(C)cc2)cc1`: inactive: -0.917%; `CCNC(C)Cc1ccc2c(c1)OCO2` (stereo not given): “inactive”.
The value for `Clc1ccc(Cl)c(NC2=NCC(CBr)S2)c1` (stereo not given) was inactive: 1.29%; that for `CN1CCCC(OC(=O)C(c2ccccc2)c2ccccc2)C1` (stereo not given) was inactive: -2.13%.
